Test results published in patent publication US20110092524A1, “Agent for Enhancing Corneal Epithelial Barrier Function” (SANTEN PHARMACEUTICAL CO., LTD., priority 2008, published 2011).

Test system: SV40-immortalized human corneal epithelial cells (HCE-T)
Assay: Enhancing effect of PPARγ agonist on barrier function (membrane electrical resistance of corneal epithelial cell layer)
Format: cell-based
Conditions: sample 10 μM, five days after seeding, average of four experiments, base culture 296.0
Method: The PPARγ agonist was evaluated with respect to the enhancing effect on the barrier function of a corneal epithelial cell. For the corneal epithelial cell, an SV40-immortalized human corneal epithelial cell line was used, utilizing a membrane electrical resistance as an index of the barrier function. When the bather function of the corneal epithelial cell is enhanced, the membrane electrical resistance increases, while the bather function is reduced, the membrane electrical resistance decreases.
From RIKEN BioResource Center, SV40-immortalized human corneal epithelial cells (HCE-T) were obtained. […] As the culture medium, a DMEM/Ham's F12 (Nacalai Tesque, Inc.) containing 15% fetal bovine serum (ICN) and 40 μg/mL of gentamicin (Gibco) was used. […] The concentration mentioned above was attained by dissolving each sample in DMSO and diluting 1,000-fold with the culture medium. In addition, a culture medium containing DMSO alone was used as a base culture medium.
Five days after the seeding, an electrical resistance of an epithelial cell layer was measured using a membrane electrical resistance measurement system (World Precision Instruments). A well containing the base medium alone with no corneal epithelial cell seeded was measured as a blank, and the value was subtracted from the electrical resistance of the epithelial cell layer. […]

Q: How did the Membrane electrical resistance turn out when `C/C(=C/C(=O)c1ccccc1)N[C@@H](Cc1ccc(OCCc2nc(-c3ccccc3)oc2C)cc1)C(=O)O` [GW-544, N-[1-methyl-3-oxo-3-phenyl-1(Z)-propenyl]-O-[2-(5-methyl-2-phenyloxazol-4-yl)ethyl]-L-tyrosine] was run?
A: The Membrane electrical resistance was 435.3 Ω · cm^2.
